# Test: Oxidation capability: sodium hypochlorite converted concentration (DPD method)
# Type: physicochemical
# Excerpt: The amount of chlorine of sodium hypochlorite is denoted not only as the available chlorine concentration derived by iodometry, but also as the amount of activated chlorine involved in the sterilizing effect contained in sodium hypochlorite, i.e., oxidation capability is denoted as free chlorine. It is well known that the free chlorine and available chlorine concentration of sodium hypochlorite show the same value. […] In this regard, it is necessary to find the oxidation capability of a chlorous acid aqueous solution by the same approach as the free chlorine of sodium hypochlorite. This can be quantified by the following method. […]
# A spectrophotometer is used as a measuring apparatus. […] However, when a test is conducted, deviation between the measured wavelength and the wavelength of the reference value is to be ±0.5 nm or less. […] Each of the measured values is to be within a mean value ±0.2 nm or less. For transmittance or absorbance, a transmittance calibration optical filter is used to read out the transmittance at the wavelength of a reference value shown on the test certificate under test conditions in the test certificate appended to each filter. Further, when a test is conducted, deviation between the measured transmittance and the reference transmittance is to be within the upper limit value and the lower limit value of relative precision shown in the test certificate plus 1%. […]
substance,measurement,value
sodium chlorite,oxidation capability,0

# From patent US11912569B2, “Method for manufacturing chlorous acid water using raw material obtained by salt electrolysis” (HONBUSANKEI CO., LTD., priority 2016, dated 2024)
